From PubChem BioAssay AID2803 (The Scripps Research Institute Molecular Screening Center, 2010)
Only a part is listed here, and it is no random draw. Calls of active or inactive are those of the source. Rule as the data show it: active = inhibition above about 43%; inactive = the rest.

Chains of the proteins cited; added tags and fusions are not shown.
UniProt Q4J6C6, whole entry: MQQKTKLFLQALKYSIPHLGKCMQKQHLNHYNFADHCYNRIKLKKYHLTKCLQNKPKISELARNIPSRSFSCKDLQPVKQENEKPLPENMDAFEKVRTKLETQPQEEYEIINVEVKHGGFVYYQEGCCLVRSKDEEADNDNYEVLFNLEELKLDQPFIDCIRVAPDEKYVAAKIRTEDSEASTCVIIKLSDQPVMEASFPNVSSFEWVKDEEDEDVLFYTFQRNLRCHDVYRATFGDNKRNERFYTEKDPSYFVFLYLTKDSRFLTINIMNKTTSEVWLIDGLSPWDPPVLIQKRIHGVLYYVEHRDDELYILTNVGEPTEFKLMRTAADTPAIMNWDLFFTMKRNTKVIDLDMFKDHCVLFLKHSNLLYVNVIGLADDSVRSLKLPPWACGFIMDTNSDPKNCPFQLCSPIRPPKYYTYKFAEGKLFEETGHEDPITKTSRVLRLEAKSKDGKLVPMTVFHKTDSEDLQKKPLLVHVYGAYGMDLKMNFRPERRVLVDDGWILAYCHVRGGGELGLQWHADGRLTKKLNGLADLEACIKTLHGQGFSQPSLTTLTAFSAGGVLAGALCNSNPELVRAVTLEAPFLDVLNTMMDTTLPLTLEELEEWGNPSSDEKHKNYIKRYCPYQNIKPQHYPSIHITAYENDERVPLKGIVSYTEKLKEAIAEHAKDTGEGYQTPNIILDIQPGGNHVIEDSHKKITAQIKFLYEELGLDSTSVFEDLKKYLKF

molecular target: Prolyl endopeptidase-like (Homo sapiens) (UniProt Q4J6C6); assay: human PREPL enzyme inhibitors, confirmation, biochemical, fluorescence polarization (AID 2803); conditions: recombinant PREPL, fluorescence polarization activity probe; at 5.96 µM; hits give high values;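 also: 0% = protein with DMSO and 100% = wells lacking protein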

Structure (SMILES)	inhibition
CC1=NCCc2c1[nH]c1ccccc21.O=[N+]([O-])c1cc([N+](=O)[O-])c(O)c([N+](=O)[O-])c1	inactive: 12.4%
